Laboratory results published in patent US12396457B2, “Laminarin based formulation for agricultural applications” (UPL Corporation Limited, priority 2020, dated 2025).

Settings: use of glycerin in laminarin formulations

Substance: Laminarin
- Laminarin solubility in water-based formulations: improve the laminarin solubility
